Test results: ChEMBL document CHEMBL3612054 (Bioorg Med Chem, 2015)

By UniProt entry, the sequences of proteins in these tests, tags left out.
UniProt P35372, whole entry: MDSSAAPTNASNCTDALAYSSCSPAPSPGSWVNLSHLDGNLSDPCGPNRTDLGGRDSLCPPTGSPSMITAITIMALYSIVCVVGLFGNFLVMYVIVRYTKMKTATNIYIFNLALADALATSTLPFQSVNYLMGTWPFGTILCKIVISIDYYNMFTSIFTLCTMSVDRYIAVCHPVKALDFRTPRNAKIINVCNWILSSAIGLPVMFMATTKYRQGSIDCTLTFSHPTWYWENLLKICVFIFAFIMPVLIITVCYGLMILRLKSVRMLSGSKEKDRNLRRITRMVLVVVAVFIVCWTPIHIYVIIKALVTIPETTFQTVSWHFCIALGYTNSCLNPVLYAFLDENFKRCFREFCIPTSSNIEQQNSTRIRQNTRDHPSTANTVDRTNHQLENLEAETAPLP

What was measured:
[1] = organism: Homo sapiens; assay: Selectivity ratio of Ke for cloned human delta opioid receptor to Ke for cloned human kappa opioid receptor
[2] = molecular target: Mu-type opioid receptor (Homo sapiens) (UniProt P35372); assay: Ratio of JDTic Ke to compound Ke for cloned human mu opioid receptor assessed as inhibition of DAMGO-induced [35S]GTPgammaS binding; type: functional

SMILES | Ratio Ke [1] | Ratio Ke [2]
CC(C)[C@@H](CN1CC[C@@](C)(c2ccccc2)[C@@H](C)C1)NC(=O)[C@H]1Cc2ccc(O)cc2CN1 | 18400 | –
CC(C)[C@@H](CN1CCC(c2cccc(F)c2)CC1)NC(=O)[C@H]1Cc2ccc(O)cc2CN1 | 5600 | 7
CC(C)[C@@H](CN1CCC(C)(c2cccc(F)c2)CC1)NC(=O)[C@H]1Cc2ccc(O)cc2CN1 | 8210 | –
